Measurements published in ChEMBL document CHEMBL1129409, “5-HT1D receptor agonist properties of novel 2-[5-[[(trifluoromethyl)sulfonyl]oxy]indolyl]ethylamines and their use as synthetic intermediates” (J Med Chem, 1996).

Chains of the proteins cited; added tags and fusions are not shown.
UniProt P08908, whole entry: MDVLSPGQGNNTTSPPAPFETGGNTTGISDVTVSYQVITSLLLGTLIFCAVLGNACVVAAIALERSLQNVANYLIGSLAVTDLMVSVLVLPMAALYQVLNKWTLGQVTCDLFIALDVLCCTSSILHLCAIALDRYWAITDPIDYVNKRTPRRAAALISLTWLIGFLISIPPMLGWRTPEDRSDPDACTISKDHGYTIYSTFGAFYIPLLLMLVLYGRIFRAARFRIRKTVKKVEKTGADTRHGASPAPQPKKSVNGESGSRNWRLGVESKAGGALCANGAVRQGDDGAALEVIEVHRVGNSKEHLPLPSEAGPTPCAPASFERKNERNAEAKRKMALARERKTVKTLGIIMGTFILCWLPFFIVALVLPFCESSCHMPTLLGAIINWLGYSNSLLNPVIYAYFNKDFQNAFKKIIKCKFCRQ

Target: 5-hydroxytryptamine receptor 1A (Homo sapiens, UniProt P08908)
Assay: Compound was tested for binding affinity against cloned human 5-hydroxytryptamine 1A receptor expressed in CHO-K1 cells.
Assay type: cell-based
Summary of the method: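 CHO cell membranes expressing cloned human 5-HT1A, 5-HT1Dα or 5-HT1Dβ receptors, or rat D2 receptors (20-60 µg protein). Radioligands: [3H]-8-OH-DPAT (5-HT1A), [3H]-5-HT (5-HT1D), [3H]U-86170 (D2). Buffers at pH 7.4: 50 mM Tris/5 mM MgCl2 (5-HT1A); the same with 0.1% ascorbic acid (5-HT1D); 20 mM HEPES/10 mM MgSO4 (D2). Nonspecific binding defined with lisuride, serotonin and haloperidol respectively. 11 concentrations in duplicate, 1 h at room temperature (5-HT1D protected from light), filtration.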

CNS(=O)(=O)Cc1ccc2[nH]cc(CCN(C)C)c2c1
Ki: 0.341 µM
